Test results taken from ChEMBL document CHEMBL3351323, “Exploitation of cholane scaffold for the discovery of potent and selective farnesoid X receptor (FXR) and G-protein coupled bile acid receptor 1 (GP-BAR1) ligands” (J Med Chem, 2014).
Calls of active or inactive are those of the source. The rule behind the calls is not given here.

Legend:
[1] = target: T1, Bile acid receptor (Homo sapiens) (UniProt Q96RI1); assay: Agonist activity at FXR in human HepG2 cells assessed as increase in BSEP mRNA expression at 10 uM by RT-PCR method; format: cell-based
T1 sequence (whole entry): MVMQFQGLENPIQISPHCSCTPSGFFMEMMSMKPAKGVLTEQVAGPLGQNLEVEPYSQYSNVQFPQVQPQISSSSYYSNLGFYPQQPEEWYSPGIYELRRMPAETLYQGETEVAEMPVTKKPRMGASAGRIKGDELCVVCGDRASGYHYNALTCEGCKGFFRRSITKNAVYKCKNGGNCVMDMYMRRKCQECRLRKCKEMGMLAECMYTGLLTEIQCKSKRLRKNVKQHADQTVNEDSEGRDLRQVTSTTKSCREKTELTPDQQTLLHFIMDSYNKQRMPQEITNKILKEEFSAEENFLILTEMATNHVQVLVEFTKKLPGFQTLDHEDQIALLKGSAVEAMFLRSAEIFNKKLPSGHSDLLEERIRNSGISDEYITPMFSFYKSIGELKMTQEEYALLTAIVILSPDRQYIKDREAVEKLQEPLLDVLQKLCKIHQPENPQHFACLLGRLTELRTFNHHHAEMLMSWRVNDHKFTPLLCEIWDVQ
How it was run: (§1)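 HepG2 cells treated at 10 μM. TRIzol RNA was DNase-treated and reverse transcribed with random primers, then SYBR real-time PCR run in triplicate (40 cycles, 95 °C/60 °C). Values normalized to GAPDH and expressed relative to untreated cells set to 1.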

[2] = target: T1, Bile acid receptor (Homo sapiens); assay: Agonist activity at FXR in human HepG2 cells assessed as increase in OSTalpha mRNA expression at 10 uM by RT-PCR method; format: cell-based; how it was run: as §1
[3] = target: T1, Bile acid receptor (Homo sapiens); assay: Agonist activity at FXR in human HepG2 cells assessed as increase in SHP mRNA expression at 10 uM by RT-PCR method; format: cell-based; how it was run: as §1
[4] = target: T2, G-protein coupled bile acid receptor 1 (Homo sapiens) (UniProt Q8TDU6); assay: Agonist activity at GP-BAR1 in human THP1 cells assessed as increase in cAMP level at 10 uM by enzyme immunoassay; format: functional, cell-based; settings: THP-1
T2 sequence (whole entry): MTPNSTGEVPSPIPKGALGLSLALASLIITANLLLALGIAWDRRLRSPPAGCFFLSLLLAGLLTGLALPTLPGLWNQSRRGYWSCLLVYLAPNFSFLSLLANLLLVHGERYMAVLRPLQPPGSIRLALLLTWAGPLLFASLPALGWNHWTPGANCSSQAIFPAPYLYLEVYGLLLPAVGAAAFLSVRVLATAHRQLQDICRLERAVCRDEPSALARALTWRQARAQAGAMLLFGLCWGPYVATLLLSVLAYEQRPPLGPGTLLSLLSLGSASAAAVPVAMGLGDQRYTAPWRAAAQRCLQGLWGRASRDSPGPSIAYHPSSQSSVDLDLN
How it was run: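 THP-1 monocytes serum-starved overnight, then stimulated 30 min at 10 μM, with forskolin 10 μM as reference. cAMP measured by direct cAMP enzyme immunoassay. Three experiments, mean ± SE.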

For `CC[C@@H]1[C@H](O)[C@@H]2[C@H](CC[C@]3(C)[C@@H]([C@H](C)CCCO)CC[C@@H]23)[C@@]2(C)CC[C@@H](O)C[C@@H]12`, the Activity [1] was “inactive”, the Activity [2] was “inactive” and the Activity [3] was “inactive”.

In the case of `C[C@H](CCCOS(=O)(=O)[O-])[C@H]1CC[C@H]2[C@@H]3[C@H](O)C[C@@H]4CCCC[C@]4(C)[C@H]3CC[C@]12C.[Na+]`, the Activity [4] is reported as “inactive”.
